Earlier results as cited in publication PMC10846865, “The Blood-Brain Barrier: Implications for Experimental Cancer Therapeutics” (Annual review of cancer biology, 2023).

Assays:
[1] = test system: ALK-positive lung cancer and CNS metastases; parameters: method as in Peters et al. 2017; details: patients with ALK-positive lung cancer and CNS metastases; ref Peters et al. 2017; cited from earlier work
[2] = test system: HER2-positive breast cancer metastases; parameters: method as in Bendell et al. 2003, Leyland-Jones 2009; details: adjuvant setting; ref Bendell et al. 2003, Leyland-Jones 2009; cited from earlier work

| Compound | clinical response compared with crizotinib [1] | control of metastases outside the CNS [2] | incidence of CNS metastases [2] |
| --- | --- | --- | --- |
| CCc1cc2c(cc1N1CCC(N3CCOCC3)CC1)C(C)(C)c1[nH]c3cc(C#N)ccc3c1C2=O [alectinib] | outperforming crizotinib | – | – |
| trastuzumab | – | highly effective | did not decrease the incidence of CNS metastases |
